Source: PubChem
Rtt109 Vps75: inhibitors of C. albicans Rtt109/Vps75 HAT, primary screen, biochemical, ThioGlo CoA-SH fluorescence, plate reader; purified Rtt109/Vps75, 4 h; inhibition, % at 34.9 µM; 0.16% of 330,000 active;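 active means inhibition of at least 50% in every replicate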
UUG fidelity: modulators of yeast start codon fidelity, primary screen, whole organism, S. cerevisiae, single point, plate reader. S. cerevisiae UUG-firefly luciferase reporter, luminescence/redox ratio. activity score, % at 18.7 µM. 350,000 tested, 0.13% active;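 active = replicate mean at a twofold rise or more, about +100% in these data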;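 also: firefly luciferase made from a UUG start codon reports start codon fidelity; reporter light over untreated wells divided by growth signal over untreated wells; some hits fall short of that in this replicate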
Statin myotox sup: suppressors of statin myotoxicity in C2C12 myotubes, primary screen, cell-based, single point, plate reader; 0.78% of 330,000 active; C2C12 myotubes + simvastatin, ATP luminescence, 48 h; scaled: DMSO 0, geranylgeraniol control 100; AID 602340, 2012; rescue of ATP level, % at 7.49 µM;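 active means mean ATP rescue above about 67%, or every replicate alone reaching that limit, limit read from the data, passing the limit was not always enough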;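 further: myotubes were challenged with 10 µM simvastatin during compound exposure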
Cneo AK release: Cryptococcus neoformans cell lysis inducers, primary screen, AK release luminescence, single concentration. C. neoformans lysis, adenylate kinase release luminescence, 4 h; normalised: neutral wells 0, clomiphene wells 100. lysis activity, % at 15 µM. 0.2% of 360,000 active. AID 651654, 2012;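 active means mean lysis activity across replicates of at least 80%, whatever share of replicates individually reach that level; inactive means mean lysis activity below 80%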
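read-out = cell lysis signal | test system = log-phase Cryptococcus neoformans yeast cells | input = cells at 5 × 10^6 per mL | medium = fresh YPD growth medium | signal = luminescent adenylate kinase detection reagent | timing = 4 h at 37 °C static, read 1 h later | dosing = single dose | controls = Clomiphene as positive lysis control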
CDK5 p35 inh: inhibitors of human CDK5/p35 kinase, primary screen, biochemical, single concentration. Cyclin-dependent kinase 5 (Homo sapiens) + Cyclin-dependent kinase 5 activator 1 (Homo …. Recombinant CDK5/p35, ADP-Glo luminescence, 60 min. inhibition, % at 10 µM. 0.01% of 330,000 active. AID 488839, 2010;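 active means highest replicate inhibition of at least 50% and at least 75% of replicates reaching 50%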
Hits are given with their value; i = inactive; nt = no result given. Sampled rows, rich in hits. Any-hit rate of the full collection: about 1%.

SMILES	Rtt109 Vps75	UUG fidelity	Statin myotox sup	Cneo AK release	CDK5 p35 inh
Cc1ccc(NS(=O)(=O)c2ccc(-n3cccn3)cc2)cc1Cl	nt	i	i	i	nt
CCCNC(=O)[C@@H]1[C@@H](CO)[C@@H]2Cn3c(ccc(/C=C/c4ccccc4)c3=O)[C@H]1N2C(=O)c1ccccc1	nt	i	i	i	nt
COc1ccc(S(=O)(=O)Nc2ccc3c(c2)CC(=O)N([C@H](C)CO)C[C@@H](C)[C@H](CN(C)Cc2ccc(C(F)(F)F)cc2)O3)cc1	nt	i	79	i	nt
COc1ccc(S(=O)(=O)Nc2ccc3c(c2)CC(=O)N([C@@H](C)CO)C[C@@H](C)[C@@H](CN(C)Cc2ccc(C(F)(F)F)cc2)O3)cc1	nt	i	i	i	nt
COc1ccc(S(=O)(=O)Nc2ccc3c(c2)CC(=O)N([C@@H](C)CO)C[C@@H](C)[C@H](CN(C)Cc2ccc(C(F)(F)F)cc2)O3)cc1	nt	i	76	i	nt
Cc1ccc(S(=O)(=O)Nc2ccc3c(c2)CC(=O)N([C@H](C)CO)C[C@H](C)[C@@H](CN(C)Cc2ccc(Oc4ccccc4)cc2)O3)cc1	nt	i	i	i	nt
Cc1ccc(S(=O)(=O)Nc2ccc3c(c2)CC(=O)N([C@@H](C)CO)C[C@@H](C)[C@H](CN(C)Cc2ccc(Oc4ccccc4)cc2)O3)cc1	nt	i	83	i	nt
COc1ccc(S(=O)(=O)Nc2ccc3c(c2)CC(=O)N([C@@H](C)CO)C[C@@H](C)[C@H](CN(C)Cc2ccc(-c4ccccc4)cc2)O3)cc1	nt	i	140	i	nt
COc1ccc(CN(C)C[C@@H]2Oc3ccc(NS(=O)(=O)c4ccc(F)cc4)cc3CC(=O)N([C@@H](C)CO)C[C@@H]2C)cc1	nt	i	i	i	nt
COc1ccc(CN(C)C[C@@H]2Oc3ccc(NS(=O)(=O)c4ccc(F)cc4)cc3CC(=O)N([C@H](C)CO)C[C@H]2C)cc1	nt	i	75	i	nt
O=C(NC(=S)Nc1cc(Cl)ccc1N1CCOCC1)c1ccccc1[N+](=O)[O-]	i	i	nt	340	i
O=C(C[C@@H]1CC[C@@H]2[C@H](COC[C@@H](O)CN2C(=O)C2CC2)O1)NCc1ccncc1	nt	nt	i	i	nt
COc1cccc(NC(=O)[C@@H]2CCCN2S(=O)(=O)c2cccc3cccnc23)c1	i	i	i	i	i
COc1cc(NC(=O)[C@@H]2CCCN2S(=O)(=O)c2cccc3cccnc23)cc(OC)c1OC	i	i	87	i	i
C[C@@H]1CCCCO[C@@H](CN(C)S(=O)(=O)c2ccc(Cl)cc2)[C@H](C)CN([C@@H](C)CO)C(=O)c2cc(NS(=O)(=O)c3cn(C)cn3)ccc2O1	nt	i	nt	i	nt
COc1ccc(NC(=O)N(C)C[C@@H]2Oc3ccc(NC(=O)CCN4CCOCC4)cc3CC(=O)N([C@@H](C)CO)C[C@H]2C)cc1	nt	i	i	i	nt
CC(=O)NC(CC(=O)NC1CCCc2ccccc21)c1ccccc1 (configuration not stated)	57	i	i	i	i
C[C@@H](NC(=O)[C@H]1[C@H](CO)[C@H]2Cn3c(cccc3=O)[C@@H]1N2C(=O)C1CCCC1)c1ccccc1	nt	i	i	i	nt
COc1cccc(C(=O)NCc2nnc(SCC(=O)Nc3nccs3)n2-c2cccc(C)c2)c1	61	i	i	i	i
Cc1cccc(-n2c(CNC(=O)COc3ccccc3)nnc2SCC(=O)Nc2nccs2)c1	i	i	i	i	i
Nn1c(SCC(=O)N2CCN(S(=O)(=O)c3ccccc3)CC2)nnc1-c1cccs1	i	i	126	i	i
Clc1ccc(Cn2nnc(-c3ccc(CN4CCOCC4)cc3)n2)cc1	i	i	i	i	i
Fc1cccc(Cl)c1Cn1nnc(-c2ccc(N3CCOCC3)cc2)n1	i	i	99	i	i
Cc1ccc(N2C(=O)c3ccc(C(=O)Nc4cccnc4)cc3C2=O)c(C)c1	i	i	90	i	i
CCN1C(=O)C(C)S/C1=N\S(=O)(=O)c1ccc(Cl)s1 (configuration not stated)	i	i	136	i	i
